Target: purified human Factor XIa (Homo sapiens (Human), UniProt P03951)
Experiment: Factor XIa Assay
Assay type: biochemical
Settings: purified human Factor XIa 40 pM; substrate Z-Gly-Pro-Arg-AFC 100 μM; 50 mM HEPES pH 7.4; read-out: Human FXIa Ki
Description: The effectiveness of a compound of the present invention as an inhibitor of Coagulation Factor XIa can be determined using a relevant purified serine protease, and an appropriate synthetic substrate. The rate of hydrolysis of the chromogenic or fluorogenic substrate by the relevant serine protease was measured both in the absence and presence of compounds of the present invention. Assays were conducted at rt or at 37° C. […] A decrease in the rate of fluorescence change in the presence of inhibitor is indicative of enzyme inhibition. Such methods are known to one skilled in the art. The results of this assay are expressed as the inhibitory constant, Ki.
Factor XIa determinations were made in 50 mM HEPES buffer at pH 7.4 containing 150 mM NaCl, 5 mM CaCl2, and 0.1% PEG 8000 (polyethylene glycol; JT Baker or Fisher Scientific). Determinations were made using purified human Factor XIa at a final concentration of 40 pM (Sekisui Diagnostics) and he synthetic substrate, Z-Gly-Pro-Arg-AFC, TFA salt (Sigma #C0980) at a concentration of 100 μM.
Times required to achieve equilibration between enzyme and inhibitor were determined in control experiments. Initial velocities of product formation in the absence (Vo) or presence of inhibitor (Vi) were measured. Assuming competitive inhibition, and that unity is negligible compared Km/[S], [I]/e, and [I]/e (where [S], [I], and e respectively represent the total concentrations, of substrate, inhibitor and enzyme), the equilibrium constant (Ki) for dissociation of the inhibitor from the enzyme can be obtained from the dependence of Vo/Vi on [I] shown in the following equation.

Protein sequences, listed by entry. Tags and fused reporters are not part of them. Residues count along the entry.
UniProt P03951, 19-387 partner: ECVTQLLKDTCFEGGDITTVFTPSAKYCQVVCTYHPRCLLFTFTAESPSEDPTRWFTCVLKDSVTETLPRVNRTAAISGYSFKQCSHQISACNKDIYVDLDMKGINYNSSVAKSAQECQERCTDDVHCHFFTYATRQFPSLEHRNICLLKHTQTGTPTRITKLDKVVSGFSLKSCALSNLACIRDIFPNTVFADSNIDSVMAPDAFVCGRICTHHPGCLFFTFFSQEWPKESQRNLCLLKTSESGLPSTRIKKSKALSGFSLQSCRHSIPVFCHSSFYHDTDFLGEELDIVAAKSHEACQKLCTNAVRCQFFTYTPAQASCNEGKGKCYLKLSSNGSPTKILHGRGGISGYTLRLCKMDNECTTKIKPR
UniProt P03951, 388-625: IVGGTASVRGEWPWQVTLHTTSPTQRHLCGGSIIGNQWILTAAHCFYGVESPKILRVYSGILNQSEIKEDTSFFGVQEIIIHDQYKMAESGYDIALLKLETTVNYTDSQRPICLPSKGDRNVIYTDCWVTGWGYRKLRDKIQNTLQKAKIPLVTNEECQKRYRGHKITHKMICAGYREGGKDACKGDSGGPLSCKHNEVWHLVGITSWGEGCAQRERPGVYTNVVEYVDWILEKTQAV

Ki [nM]	SMILES
1.52	COC(=O)Nc1ccc2c(c1)NC(=O)CCCC[C@H](c1ccc(-c3c(F)cccc3OC(F)F)c[n+]1[O-])c1cccc-2c1 (single isomer, unassigned) [Example 34]
0.24	COC(=O)Nc1ccc2c(c1)NC(=O)CCCC[C@H](c1ccc(-c3cc(Cl)ccc3-c3cnco3)c[n+]1[O-])c1cccc-2c1 (single isomer, unassigned) [Example 35]
0.11	COC(=O)Nc1ccc2c(c1)NC(=O)CCCC[C@H](c1ccc(-c3cc(Cl)ccc3-n3cc(C4CC4)nn3)c[n+]1[O-])c1cccc-2c1 (single isomer, unassigned) [Example 38]
0.52	COC(=O)Nc1ccc2c(c1)NC(=O)CCCC[C@H](c1ccc(-c3c(F)ccc(Cl)c3F)c[n+]1[O-])c1ccc(F)c-2c1 (single isomer, unassigned) [Example 68]
0.47	COC(=O)Nc1ccc2c(c1)NC(=O)CCCC[C@H](c1ccc(-c3cc(Cl)ccc3-n3cnnn3)c[n+]1[O-])c1cc-2ncc1F (single isomer, unassigned) [Example 71]
0.16	COC(=O)Nc1ccc2c(c1)NC(=O)[C@H](C)CCC[C@H](c1ccc(-c3c(F)ccc(Cl)c3F)c[n+]1[O-])c1cc-2ncc1F (single isomer, unassigned) [Example 76-a]
1.37	COC(=O)Nc1ccc2c(c1)NC(=O)[C@@H](C)CCC[C@H](c1ccc(-c3c(F)ccc(Cl)c3F)c[n+]1[O-])c1cc-2ncc1F (single isomer, unassigned) [Example 76-b]
64	COC(=O)Nc1ccc2c(c1)NC(=O)[C@@H](C)CCC[C@@H](c1ccc(-c3c(F)ccc(Cl)c3F)c[n+]1[O-])c1cc-2ncc1F (single isomer, unassigned) [Example 76-c]
110	COC(=O)Nc1ccc2c(c1)NC(=O)[C@H](C)CCC[C@@H](c1ccc(-c3c(F)ccc(Cl)c3F)c[n+]1[O-])c1cc-2ncc1F (single isomer, unassigned) [Example 76-d]
0.85	COC(=O)Nc1ccc2c(c1)NC(=O)[C@H](C)CCC[C@H](c1ccc(-c3cc(Cl)ccc3OC(F)(F)F)c[n+]1[O-])c1cccc-2c1 (single isomer, unassigned) [Example 77-a]
2.31	COC(=O)Nc1ccc2c(c1)NC(=O)[C@@H](C)CCC[C@H](c1ccc(-c3cc(Cl)ccc3OC(F)(F)F)c[n+]1[O-])c1cccc-2c1 (single isomer, unassigned) [Example 77-b]
186	COC(=O)Nc1ccc2c(c1)NC(=O)C(C)CCCC(c1cc(OC)c(-c3c(F)ccc(Cl)c3F)c[n+]1[O-])c1cccc-2c1 (single isomer, unassigned) [Example 88-a, 5-(3-Chloro-2,6-difluorophenyl)-4-methoxy-2-(2^4-((methoxycarbonyl)amino)-5-methyl-4-oxo-3-aza-1(1,3),2(1,2) -dibenzenacyclononaphane-9-yl)pyridine 1-oxide]
0.75	COC(=O)Nc1ccc2c(c1)NC(=O)C(C)CCCC(c1cc(OC)c(-c3c(F)ccc(Cl)c3F)c[n+]1[O-])c1cccc-2c1 (single isomer, unassigned) [Example 88-b, 5-(3-Chloro-2,6-difluorophenyl)-4-methoxy-2-(2^4-((methoxycarbonyl)amino)-5-methyl-4-oxo-3-aza-1(1,3),2(1,2) -dibenzenacyclononaphane-9-yl)pyridine 1-oxide]
197	COC(=O)Nc1ccc2c(c1)NC(=O)C(C)CCCC(c1cc(OC)c(-c3c(F)ccc(Cl)c3F)c[n+]1[O-])c1cccc-2c1 (single isomer, unassigned) [Example 88-c, 5-(3-Chloro-2,6-difluorophenyl)-4-methoxy-2-(2^4-((methoxycarbonyl)amino)-5-methyl-4-oxo-3-aza-1(1,3),2(1,2) -dibenzenacyclononaphane-9-yl)pyridine 1-oxide]
0.57	COC(=O)Nc1ccc2c(c1)NC(=O)C(C)CCCC(c1cc(OC)c(-c3c(F)ccc(Cl)c3F)c[n+]1[O-])c1cccc-2c1 (single isomer, unassigned) [Example 88-d, 5-(3-Chloro-2,6-difluorophenyl)-4-methoxy-2-(2^4-((methoxycarbonyl)amino)-5-methyl-4-oxo-3-aza-1(1,3),2(1,2) -dibenzenacyclononaphane-9-yl)pyridine 1-oxide]
0.44	COC(=O)Nc1ccc2c(c1)NC(=O)CCCCC(c1ccc(-c3cc(Cl)ccc3-n3cc(C(=O)O)nn3)cn1)c1cccc-2c1 (single isomer, unassigned) [Example 92-a, 1-(4-chloro-2-(6-(2^4-((methoxycarbonyl)amino)-4-oxo-3-aza-1(1,3),2(1,2) -dinenzenacyclononaphane-9-yl)pyridin-3-yl)phenyl)-1H-1,2,3-triazole-4-carboxylic acid]
0.89	COC(=O)Nc1ccc2c(c1)NC(=O)CCCCC(c1ccc(-c3c(F)ccc(Cl)c3F)c[n+]1[O-])c1ccnc-2c1 (single isomer, unassigned) [Example 93-a, 5-(3-Chloro-2,6-difluorophenyl)-2-(2^4-((methoxycarbonyl)amino)-4-oxo-3-aza-1 (2,4)-pyridina-2(1,2)-benzenacyclononaphane-9-yl)pyridine 1-oxide]
2.7	COC(=O)Nc1ccc2c(c1)NC(=O)C(C)CCCC(c1ccc(-c3c(F)ccc(Cl)c3F)cn1)c1cc-2ccn1 (single isomer, unassigned) [Example 95-a, Methyl (9-(5-(3-chloro-2,6-difluorophenyl)pyridin-2-yl)-5-methyl-4-oxo-3-aza-1(4,2)-pyridina-2(1,2)-benzenacyclononaphane-2^4-yl)carbamate]
574	COC(=O)Nc1ccc2c(c1)NC(=O)C(C)CCCC(c1ccc(-c3c(F)ccc(Cl)c3F)cn1)c1cc-2ccn1 (single isomer, unassigned) [Example 95-c, Methyl (9-(5-(3-chloro-2,6-difluorophenyl)pyridin-2-yl)-5-methyl-4-oxo-3-aza-1(4,2)-pyridina-2(1,2)-benzenacyclononaphane-2^4-yl)carbamate]
2.9	COC(=O)Nc1ccc2c(c1)NC(=O)C(C)CCCC(c1ccc(-c3c(F)ccc(Cl)c3F)cn1)c1cc-2ccn1 (single isomer, unassigned) [Example 95-d, Methyl (9-(5-(3-chloro-2,6-difluorophenyl)pyridin-2-yl)-5-methyl-4-oxo-3-aza-1(4,2)-pyridina-2(1,2)-benzenacyclononaphane-2^4-yl)carbamate]
0.17	COC(=O)Nc1ccc2c(c1)NC(=O)C(C)CCCC(c1ccc(-c3c(F)ccc(Cl)c3F)c[n+]1[O-])c1nc-2c[nH]1 (single isomer, unassigned) [Example 114-a, (Z)-5-(3-chloro-2,6-difluorophenyl)-2-(2^4-((methoxycarbonyl)amino)-5-methyl-4-oxo-1^1H-3-aza-1(4,2)-imidazola-2(1,2) -benzenacyclononaphane-9-yl)pyridine 1-oxide]
16.5	COC(=O)Nc1ccc2c(c1)NC(=O)C(C)CCCC(c1ccc(-c3c(F)ccc(Cl)c3F)c[n+]1[O-])c1nc-2c[nH]1 (single isomer, unassigned) [Example 114-b, (Z)-5-(3-chloro-2,6-difluorophenyl)-2-(2^4-((methoxycarbonyl)amino)-5-methyl-4-oxo-1^1H-3-aza-1(4,2)-imidazola-2(1,2) -benzenacyclononaphane-9-yl)pyridine 1-oxide]
0.3	COC(=O)Nc1ccc2c(c1)NC(=O)C(C)CCCC(c1ccc(-c3c(F)ccc(Cl)c3F)c[n+]1[O-])c1nc-2c[nH]1 (single isomer, unassigned) [Example 114-c, (Z)-5-(3-chloro-2,6-difluorophenyl)-2-(2^4-((methoxycarbonyl)amino)-5-methyl-4-oxo-1^1H-3-aza-1(4,2)-imidazola-2(1,2) -benzenacyclononaphane-9-yl)pyridine 1-oxide]
9.96	COC(=O)Nc1ccc2c(c1)NC(=O)C(C)CCCC(c1ccc(-c3c(F)ccc(Cl)c3F)c[n+]1[O-])c1nc-2c[nH]1 (single isomer, unassigned) [Example 114-d, (Z)-5-(3-chloro-2,6-difluorophenyl)-2-(2^4-((methoxycarbonyl)amino)-5-methyl-4-oxo-1^1H-3-aza-1(4,2)-imidazola-2(1,2) -benzenacyclononaphane-9-yl)pyridine 1-oxide]
0.53	COC(=O)Nc1ccc2c(c1)NC(=O)CCCC[C@H](c1ccc(-c3c(F)cccc3-n3cc(C(F)(F)F)cn3)c[n+]1[O-])c1nc-2c[nH]1 (single isomer, unassigned) [Example 115]
0.14	COC(=O)Nc1ccc2c(c1)NC(=O)CCCC[C@H](c1ccc(-c3c(F)cccc3OC(F)F)c[n+]1[O-])c1nc-2c(C)[nH]1 (single isomer, unassigned) [Example 126]
0.15	COC(=O)Nc1ccc2c(c1)NC(=O)CCCC[C@H](c1ccc(-c3c(OC(F)F)ccc(F)c3F)c[n+]1[O-])c1nc-2c(C)[nH]1 (single isomer, unassigned) [Example 130]
0.22	COC(=O)Nc1ccc2c(c1)NC(=O)CCCCC(c1ccc(-c3c(F)cccc3OC(F)(F)F)c[n+]1[O-])c1nc-2c(C)[nH]1 (single isomer, unassigned) [Example 131]

Reference: patent US10214512B2, “Factor XIA inhibitors” (MERCK SHARP & DOHME CORP., priority 2015, dated 2019)
